What all share (format): cell-based
In assay [1] the target is T1, Pacific Blue-soluble HER2 (Homo sapiens, UniProt P04626).
T1 construct: host or cells: reagent; the stained cells are transiently transfected CHO-S
Description: Flow cytometry of CAR-transfected CHO-S cells, soluble HER2 labeling. Particulars: two days. An excerpt: (§1) FIG. 10. CHO-S cells were transfected with either memAb trastuzumab Fab CAR (meCAR) or trastuzumab scFv-CAR (HER2CAR) plasmid for two days. The meCAR and HER2CAR construct differ only in the HER2-targeting component, each linked to CH3, CD28 transmembrane domain and CD3 zeta. A truncated CD19 can also be expressed from the plasmids and serves as a transfection control. The transfected CHO-S cells were filtered with 40 μm filter to remove debris and were washed once with 0.3% BSA-PBS. The cells were then labeled on ice for 1 h with: PE-anti-CD19 or isotype control, biotinylated anti-Fcγ followed by streptavidin-PE, or double-labeled with Pacific Blue-soluble HER2 and Alexa Fluor 488-meditope Fc (MFC). At the end of the incubations, the cells were washed once and resuspended in 800 μl of wash buffer. Sytox blue was added to the unlabeled cells for viability and membrane permeability assessments. Cells were gated with forward and side scatter only. Sytox Blue and Pacific Blue have considerable overlap in their spectra, thus the Sytox Blue signal of the unlabeled samples have “leaked” into the Pacific Blue channel. It has been noted that when CHO-S cells express membrane-bound proteins, their membrane becomes more permeable to Sytox Blue dye as shown with the group of cells in yellow oval.
(In general: Flow cytometry measures light scatter and fluorescence of single cells or particles in a stream.)

Assay [2] concerns Alexa Fluor 488-meditope Fc (MFC). As to the kind of experiment: Flow cytometry of CAR-transfected CHO-S cells, meditope Fc labeling. Particulars: two days.
Description: as §1

Assay [3] relates to Meditope-AF647. As to the kind of experiment: Flow cytometry of meHER2-CARs in primary human T cells, Meditope-AF647 staining. Particulars: lentivirally transduced primary human T cells; CAR meditope pocket. As for the experimental part: FIG. 11A-11C. Expression of meditope-enabled Fab-CARs in primary human T cells. FIG. 11A, Schematic of meditope (me)-enabled trastuzumab Fab-CAR cassette (meHER2), with the T2A ribosomal skip sequence separating the antibody light chain (meLc) and the heavy chain fused to the IgG4-CH3-Fc linker, CD28 trasmembrane domain (Tm) and the CD28 and CD3ζ cytoplasmic signaling domains (Hc28ζ). Expression is driven by the EF1α promoter and was tested in two orientations: Lc-Hc28ζ and Hc28ζ-Lc. FIG. 11B, Primary human T cells were lentivirally transduced and expression of the meHER2-CARs was evaluated by flow cytometry. Protein L staining, which binds the Fab light chain, confirms cell surface expression of both CAR orientations, with higher expression levels (MFI) observed for the Hc28ζ-Lc (MFI 5357) vs Lc-Hc28ζ (MFI 2592) orientation. Meditope-AF647 staining confirms the functional formation of the CAR meditope pocket, with greater binding to the Hc28ζ-Lc (MFI 6042) vs Lc-Hc28ζ (MFI 2121) orientation.

As for “meCAR: memAb trastuzumab Fab CAR linked to CH3, CD28 transmembrane domain and CD3 zeta, in CHO-S cells”, in assay [1], the “soluble HER2 (sHER2) labeling” value is listed as “sHER2 positive”. In addition, the MFC binding entry in assay [2] is on record as “positive for MFC binding”. On to “Lc-Hc28ζ: meditope-enabled trastuzumab Fab-CAR, light chain followed by T2A and heavy chain-CD28-CD3ζ”, for which, in assay [3], the “Meditope-AF647 staining, binding (MFI)” value is 2121.

The values above are taken from patent US9574014B2, “Chimeric antigen receptor compositions” (City of Hope, priority 2015, dated 2017).
